The results in this text go back to patent US7485625B2, “Inhibitors of hepatitis C virus NS3/NS4a serine protease” (Schering Corporation, priority 2003, dated 2009).

Amino acid sequences for entries named in this document (tags omitted). Residues count along the entry.
UniProt P27958, 1027-1657: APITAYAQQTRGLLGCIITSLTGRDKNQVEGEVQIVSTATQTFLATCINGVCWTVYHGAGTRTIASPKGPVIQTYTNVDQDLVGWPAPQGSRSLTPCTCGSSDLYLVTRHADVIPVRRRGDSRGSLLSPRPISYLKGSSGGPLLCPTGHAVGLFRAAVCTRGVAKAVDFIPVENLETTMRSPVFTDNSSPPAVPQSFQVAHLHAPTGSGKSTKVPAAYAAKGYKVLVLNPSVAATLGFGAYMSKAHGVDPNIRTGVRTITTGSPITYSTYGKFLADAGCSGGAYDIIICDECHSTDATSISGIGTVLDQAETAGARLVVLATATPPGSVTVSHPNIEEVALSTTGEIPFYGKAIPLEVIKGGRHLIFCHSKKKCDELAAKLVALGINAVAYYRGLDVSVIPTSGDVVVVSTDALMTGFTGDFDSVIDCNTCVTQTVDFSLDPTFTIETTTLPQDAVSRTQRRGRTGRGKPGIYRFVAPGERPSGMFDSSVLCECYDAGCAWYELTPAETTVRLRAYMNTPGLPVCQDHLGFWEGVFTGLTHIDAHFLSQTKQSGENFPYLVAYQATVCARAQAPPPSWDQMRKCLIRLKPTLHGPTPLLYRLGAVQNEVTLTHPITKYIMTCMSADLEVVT
UniProt P27958, 1658-1711: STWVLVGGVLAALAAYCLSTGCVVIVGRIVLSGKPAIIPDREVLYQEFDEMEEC

As usually defined, the Ki is the dissociation constant of the complex between target and ligand, obtained from inhibition or displacement.

The target in the test is Recombinant heterodimeric HCV NS3/NS4A protease (strain 1a) (Hepatitis C virus genotype 1a, UniProt P27958). Briefly: Spectrophotometric assay for HCV NS3/NS4a serine protease inhibitory activity (chromogenic ester substrates). Type of test: biochemical.
[1] abbreviates: Table I, NS3/NS4a serine protease inhibitory activity.

Take `CC1([C@H](NC(=O)[C@@H](NC(=O)c2cnccn2)C2CCCCC2)C(=O)N2C[C@H]3[C@@H]([C@H]2C(=O)NC(CC2CCC2)C(=O)C(N)=O)C3(C)C)CCCCC1` (some centres unmarked) [Entry 1]: where the note is “Table 3”, the Ki turned out to be 0.0032 µM.

Turning to `CCC[C@H](NC(=O)[C@@H]1[C@@H]2[C@H](CN1C(=O)[C@@H](NC(=O)[C@@H](NC(=O)c1cnccn1)C1CCCCC1)C(C)(C)C)C2(C)C)C(=O)C(=O)NC1CC1` [Entry 1], the Ki under setting [1] was 0.01 µM.

`C#CCCC(NC(=O)[C@@H]1[C@@H]2[C@H](CN1C(=O)[C@@H](NC(=O)[C@@H](NC(=O)c1cnccn1)C1CCCCC1)C(C)(C)C)C2(C)C)C(=O)C(=O)NCC=C` (some centres unmarked) [Entry 2]: the Ki under setting [1] is 0.006 µM.

For `C=CCNC(=O)C(=O)C(CCC)NC(=O)[C@@H]1[C@@H]2[C@H](CN1C(=O)[C@@H](NC(=O)[C@@H](NC(=O)c1cnccn1)C1CCCCC1)C1CCCCC1)C2(C)C` (some centres unmarked) [Entry 2], under “Table 2, range classes”, the inhibition constant Ki is at most 0.1 µM.

Take `CC1([C@H](NC(=O)[C@@H](NC(=O)c2cnccn2)C2CCCCC2)C(=O)N2C[C@H]3[C@@H]([C@H]2C(=O)NC(CC2CC2)C(=O)C(N)=O)C3(C)C)CCCCC1` (some centres unmarked) [Entry 2]: the Ki (Table 3) amounted to 0.004 µM.

Consider `C#CCCC(NC(=O)[C@@H]1[C@@H]2[C@H](CN1C(=O)[C@@H](NC(=O)[C@@H](NC(=O)c1cnccn1)C1(C)CCCCC1)C(C)(C)C)C2(C)C)C(=O)C(=O)NCC=C` (some centres unmarked) [Entry 3], for which the Ki (Table 3) is 0.004 µM.

`C=CCNC(=O)C(=O)C(CC1CCC1)NC(=O)[C@@H]1[C@@H]2[C@H](CN1C(=O)[C@@H](NC(=O)[C@@H](NC(=O)c1cnccn1)C1CCCCC1)C1CCCCC1)C2(C)C` (some centres unmarked) [Entry 3]: the Ki (Table 2, range classes) is at most 0.1 µM.

As to `C#CCCC(NC(=O)[C@@H]1[C@@H]2[C@H](CN1C(=O)[C@@H](NC(=O)[C@@H](NC(=O)c1cnccn1)C1CCCCC1)C1(C)CCCCC1)C2(C)C)C(=O)C(=O)NCC=C` (some centres unmarked) [Entry 4], the Ki (Table 3) worked out at 0.005 µM.

For the compound `C=CCNC(=O)C(=O)C(CC1CC1)NC(=O)[C@@H]1[C@@H]2[C@H](CN1C(=O)[C@@H](NC(=O)[C@@H](NC(=O)c1cnccn1)C1CCCCC1)C1CCCCC1)C2(C)C` (some centres unmarked) [Entry 4], the Ki (Table 2, range classes) was at most 0.1 µM.

On to `C#CCCC(NC(=O)[C@@H]1[C@@H]2[C@H](CN1C(=O)[C@@H](NC(=O)[C@@H](NC(=O)c1cnccn1)C1CCCCC1)C(C)(C)C)C2(C)C)C(=O)C(=O)NCC=C` (some centres unmarked) [Entry 5], for which, for the setting “Table 3”, the Ki worked out at 0.006 µM.

As to `C=CCNC(=O)C(=O)C(CCC)NC(=O)[C@@H]1[C@@H]2[C@H](CN1C(=O)[C@@H](NC(=O)[C@@H](NC(=O)c1cnccn1)C1CCCCC1)C1(C)CCCCC1)C2(C)C` (some centres unmarked) [Entry 5], the Ki (Table 2, range classes) is at most 0.1 µM.

`C=CCNC(=O)C(=O)C(CCCC)NC(=O)[C@@H]1[C@@H]2[C@H](CN1C(=O)[C@@H](NC(=O)[C@@H](NC(=O)c1cnccn1)C1CCCCC1)C1(C)CCCCC1)C2(C)C` (some centres unmarked) [Entry 6]: under “Table 2, range classes”, the Ki is at most 0.1 µM.

`CCC[C@H](NC(=O)[C@@H]1[C@@H]2[C@H](CN1C(=O)[C@@H](NC(=O)[C@@H](NC(=O)c1cnccn1)C1(C)CCCCC1)C(C)(C)C)C2(C)C)C(=O)C(=O)NC1CC1` [Entry 6]: the Ki (Table 3) is 0.007 µM.

Turning to `C#CCCC(NC(=O)[C@@H]1[C@@H]2[C@H](CN1C(=O)[C@@H](NC(=O)[C@@H](NC(=O)c1cnccn1)C1(C)CCCCC1)C1(C)CCCCC1)C2(C)C)C(=O)C(=O)NCC=C` (some centres unmarked) [Entry 7], the Ki (Table 3) was found to be 0.007 µM.

For the compound `C#CCCC(NC(=O)[C@@H]1[C@@H]2[C@H](CN1C(=O)[C@@H](NC(=O)[C@@H](NC(=O)c1cnccn1)C1CCCCC1)C1(C)CCCCC1)C2(C)C)C(=O)C(=O)NCC=C` (some centres unmarked) [Entry 7], the Ki (Table 2, range classes) was at most 0.1 µM.

For the compound `C=CCNC(=O)C(=O)C(CC1CCC1)NC(=O)[C@@H]1[C@@H]2[C@H](CN1C(=O)[C@@H](NC(=O)[C@@H](NC(=O)c1cnccn1)C1CCCCC1)C1(C)CCCCC1)C2(C)C` (some centres unmarked) [Entry 8], the Ki (Table 2, range classes) is at most 0.1 µM.

As to `C=CCNC(=O)C(=O)C(CCC)NC(=O)[C@@H]1[C@@H]2[C@H](CN1C(=O)[C@@H](NC(=O)[C@@H](NC(=O)c1cnccn1)C1CCCCC1)C1(C)CCCCC1)C2(C)C` (some centres unmarked) [Entry 8], for the setting “Table 3”, the Ki was 0.009 µM.

Regarding `C=CCNC(=O)C(=O)C(CCC(F)(F)F)NC(=O)[C@@H]1[C@@H]2[C@H](CN1C(=O)[C@@H](NC(=O)[C@@H](NC(=O)c1cnccn1)C1CCCCC1)C(C)(C)C)C2(C)C` (some centres unmarked) [Entry 9], the Ki (Table 3) worked out at 0.012 µM.

For `CC1([C@H](NC(=O)[C@@H](NC(=O)c2cnccn2)C2CCCCC2)C(=O)N2C[C@H]3[C@@H]([C@H]2C(=O)NC(CC2CC2)C(=O)C(N)=O)C3(C)C)CCCCC1` (some centres unmarked) [Entry 9], where the note is “Table 2, range classes”, the Ki is at most 0.1 µM.

Turning to `C=CCNC(=O)C(=O)C(CCC)NC(=O)[C@@H]1[C@@H]2[C@H](CN1C(=O)[C@@H](NC(=O)[C@@H](NC(=O)c1cnccn1)C1(C)CCCCC1)C(C)(C)C)C2(C)C` (some centres unmarked) [Entry 10], the Ki (Table 3) is 0.012 µM.

For the compound `CC1([C@H](NC(=O)[C@@H](NC(=O)c2cnccn2)C2CCCCC2)C(=O)N2C[C@H]3[C@@H]([C@H]2C(=O)NC(CC2CCC2)C(=O)C(N)=O)C3(C)C)CCCCC1` (some centres unmarked) [Entry 10], the Ki (Table 2, range classes) was at most 0.1 µM.

With `C=CCNC(=O)C(=O)C(CC1CCC1)NC(=O)[C@@H]1[C@@H]2[C@H](CN1C(=O)[C@@H](NC(=O)[C@@H](NC(=O)c1cnccn1)c1ccccc1)C(C)(C)C)C2(C)C` (some centres unmarked) [Entry 11], under “Table 2, range classes”, the Ki is 0.1 to 1 µM.

Turning to `CCC[C@H](NC(=O)[C@@H]1[C@@H]2[C@H](CN1C(=O)[C@@H](NC(=O)[C@@H](NC(=O)c1cnccn1)C1CCCCC1)C(C)(C)C)C2(C)C)C(=O)C(=O)NC1CC1` [Entry 11], the inhibitory constant (Ki) (Table 3) amounted to 0.013 µM.

As for `C=CCNC(=O)C(=O)C(CC1CC1)NC(=O)[C@@H]1[C@@H]2[C@H](CN1C(=O)[C@@H](NC(=O)[C@@H](NC(=O)c1cnccn1)c1ccccc1)C(C)(C)C)C2(C)C` (some centres unmarked) [Entry 12], for the setting “Table 2, range classes”, the inhibition constant (Ki) was at most 0.1 µM.

Consider `C=CCNC(=O)C(=O)C(CCCC)NC(=O)[C@@H]1[C@@H]2[C@H](CN1C(=O)[C@@H](NC(=O)[C@@H](NC(=O)c1cnccn1)C1CCCCC1)C1(C)CCCCC1)C2(C)C` (some centres unmarked) [Entry 12], for which, under “Table 3”, the Ki amounted to 0.013 µM.

With `C=CCNC(=O)C(=O)C(CCC)NC(=O)[C@@H]1[C@@H]2[C@H](CN1C(=O)[C@@H](NC(=O)[C@@H](NC(=O)c1cnccn1)C1CCCCC1)C1Cc3ccccc3C1)C2(C)C` (some centres unmarked) [Entry 13], the Ki (Table 3) came out at 0.013 µM.

`CC(C)(C)[C@H](NC(=O)[C@@H](NC(=O)c1cnccn1)c1ccccc1)C(=O)N1C[C@H]2[C@@H]([C@H]1C(=O)NC(CC1CC1)C(=O)C(N)=O)C2(C)C` (some centres unmarked) [Entry 13]: for the setting “Table 2, range classes”, the Ki is at most 0.1 µM.

Take `C=CCNC(=O)C(=O)C(CCC)NC(=O)[C@@H]1[C@@H]2[C@H](CN1C(=O)[C@@H](NC(=O)[C@@H](NC(=O)c1cnccn1)C1CCCCC1)C(C)(C)C)C2(C)C` (some centres unmarked) [Entry 14]: the Ki (Table 3) is 0.014 µM.

`C=CCNC(=O)C(=O)C(CCCC)NC(=O)[C@@H]1[C@@H]2[C@H](CN1C(=O)[C@@H](NC(=O)[C@@H](NC(=O)c1cnccn1)c1ccccc1)C(C)(C)C)C2(C)C` (some centres unmarked) [Entry 14]: the inhibition constant (Ki) (Table 2, range classes) was at most 0.1 µM.

For `C=CCNC(=O)C(=O)C(CCCC)NC(=O)[C@@H]1[C@@H]2[C@H](CN1C(=O)[C@@H](NC(=O)[C@@H](NC(=O)c1cnccn1)C1CCCCC1)C1CCCCC1)C2(C)C` (some centres unmarked) [Entry 15], the Ki (Table 3) came to 0.016 µM.

For the compound `CCCC(NC(=O)[C@@H]1[C@@H]2[C@H](CN1C(=O)[C@@H](NC(=O)[C@@H](NC(=O)c1cnccn1)c1ccccc1)C(C)(C)C)C2(C)C)C(=O)C(N)=O` (some centres unmarked) [Entry 15], for the setting “Table 2, range classes”, the Ki is at most 0.1 µM.

Turning to `C=CCNC(=O)C(=O)C(CCCC)NC(=O)[C@@H]1[C@@H]2[C@H](CN1C(=O)[C@@H](NC(=O)[C@@H](NC(=O)c1cnccn1)C1CCCCC1)C(C)(C)C)C2(C)C` (some centres unmarked) [Entry 16], the Ki (Table 3) came to 0.016 µM.

For the compound `CC(C)(C)[C@H](NC(=O)[C@@H](NC(=O)c1cnccn1)c1ccccc1)C(=O)N1C[C@H]2[C@@H]([C@H]1C(=O)NC(CC1CCC1)C(=O)C(N)=O)C2(C)C` (some centres unmarked) [Entry 16], for the setting “Table 2, range classes”, the Ki is at most 0.1 µM.

In the case of `C=CCNC(=O)C(=O)C(CC1CC1)NC(=O)[C@@H]1[C@@H]2[C@H](CN1C(=O)[C@@H](NC(=O)[C@@H](NC(=O)c1cnccn1)C1CCCCC1)C1(C)CCCCC1)C2(C)C` (some centres unmarked) [Entry 17], the Ki (Table 2, range classes) was at most 0.1 µM.

With `C=CCNC(=O)C(=O)C(CCCC)NC(=O)[C@@H]1[C@@H]2[C@H](CN1C(=O)[C@@H](NC(=O)[C@@H](NC(=O)c1cnccn1)C1(C)CCCCC1)C(C)(C)C)C2(C)C` (some centres unmarked) [Entry 17], where the note is “Table 3”, the Ki was 0.017 µM.

As for `C=CCNC(=O)C(=O)C(CC1CCC1)NC(=O)[C@@H]1[C@@H]2[C@H](CN1C(=O)[C@@H](NC(=O)[C@@H](NC(=O)c1cnccn1)C1CCCCC1)C1(C)CCCCC1)C2(C)C` (some centres unmarked) [Entry 19], the Ki (Table 3) is 0.019 µM.

Take `CCCC(NC(=O)[C@@H]1[C@@H]2[C@H](CN1C(=O)[C@@H](NC(=O)[C@@H](NC(=O)c1cnccn1)C1CCCCC1)C1(C)CCCCC1)C2(C)C)C(=O)C(=O)NC1CC1` (some centres unmarked) [Entry 19]: the Ki (Table 2, range classes) was at most 0.1 µM.

As to `C=CCNC(=O)C(=O)C(CCC)NC(=O)[C@@H]1[C@@H]2[C@H](CN1C(=O)[C@@H](NC(=O)[C@@H](NC(=O)c1cnccn1)C(C)(C)C)C(C)(C)C)C2(C)C` (some centres unmarked) [Entry 20], for the setting “Table 2, range classes”, the Ki is at most 0.1 µM.

In the case of `CC(C)(C)[C@H](NC(=O)[C@@H](NS(=O)(=O)c1ccccc1)C1CCCCC1)C(=O)N1C[C@H]2[C@@H]([C@H]1C(=O)NC(CC1CC1)C(=O)C(N)=O)C2(C)C` (some centres unmarked) [Entry 20], under “Table 3”, the Ki stood at 0.02 µM.

Take `C=CCNC(=O)C(=O)C(CCC)NC(=O)[C@@H]1[C@@H]2[C@H](CN1C(=O)[C@@H](NC(=O)[C@@H](NC(=O)c1cnccn1)C1CCCCC1)C1CCCCC1)C2(C)C` (some centres unmarked) [Entry 21]: under “Table 3”, the Ki came out at 0.022 µM.

For the compound `C=CCNC(=O)C(=O)C(CCCC)NC(=O)[C@@H]1[C@@H]2[C@H](CN1C(=O)[C@@H](NC(=O)[C@@H](NC(=O)c1cnccn1)C(C)(C)C)C(C)(C)C)C2(C)C` (some centres unmarked) [Entry 21], under “Table 2, range classes”, the Ki was 0.1 to 1 µM.

In the case of `C=CCNC(=O)C(=O)C(CC1CC1)NC(=O)[C@@H]1[C@@H]2[C@H](CN1C(=O)[C@@H](NC(=O)[C@@H](NC(=O)c1cnccn1)C1CCCCC1)C(C)(C)C)C2(C)C` (some centres unmarked) [Entry 22], the Ki (Table 3) was 0.022 µM.

`C=CCNC(=O)C(=O)C(CC1CCC1)NC(=O)[C@@H]1[C@@H]2[C@H](CN1C(=O)[C@@H](NC(=O)[C@@H](NC(=O)c1cnccn1)C(C)(C)C)C(C)(C)C)C2(C)C` (some centres unmarked) [Entry 22]: the Ki (Table 2, range classes) was in the range of 0.1 to 1 µM.

Regarding `CC(C)(C)[C@H](NC(=O)[C@@H](NS(=O)(=O)c1cccs1)C1CCCCC1)C(=O)N1C[C@H]2[C@@H]([C@H]1C(=O)NC(CC1CC1)C(=O)C(N)=O)C2(C)C` (some centres unmarked) [Entry 23], the Ki (Table 2, range classes) was at most 0.1 µM.
